Experimental data taken from ChEMBL document CHEMBL5726741, “Enantiomers of the 1′,6′-isomer of neplanocin A” (2019).

Biological target: T1, AdoHcyase_NAD domain-containing protein (Oryctolagus cuniculus, UniProt G1SVH0)
T1 sequence (G1SVH0 whole entry): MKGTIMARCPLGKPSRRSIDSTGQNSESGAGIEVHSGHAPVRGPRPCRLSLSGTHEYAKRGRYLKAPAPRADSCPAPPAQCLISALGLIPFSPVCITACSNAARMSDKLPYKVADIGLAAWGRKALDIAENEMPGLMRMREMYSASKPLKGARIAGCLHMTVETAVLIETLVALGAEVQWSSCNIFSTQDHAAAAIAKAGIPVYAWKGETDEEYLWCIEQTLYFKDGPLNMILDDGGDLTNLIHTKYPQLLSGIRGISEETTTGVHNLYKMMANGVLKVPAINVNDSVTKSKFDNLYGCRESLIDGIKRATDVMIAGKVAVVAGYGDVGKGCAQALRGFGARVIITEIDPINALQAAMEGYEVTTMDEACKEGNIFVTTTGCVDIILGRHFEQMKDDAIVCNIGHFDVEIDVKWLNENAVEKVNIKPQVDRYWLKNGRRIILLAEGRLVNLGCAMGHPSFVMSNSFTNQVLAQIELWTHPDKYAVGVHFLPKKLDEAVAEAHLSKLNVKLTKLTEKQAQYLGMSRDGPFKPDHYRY
Assay: S-Adenosylhomocysteine Hydrolase (SAHase) Inhibition: As a consequence of "D"-Isoneplanocin and "L"-Isoneplanocin, being isomers of Neplanocin A, which on one hand is a potent inhibitor of S-adenosylhomocysteine hydrolase (SAHase), a mechanism agreed upon as one source of its antiviral activity and on the other hand thought to contribute to cytotoxicity, the inhibitory efficiency on SAHase …

| SMILES | IC50 |
| --- | --- |
| Nc1ncnc2c1ncn2C1=C[C@H](CO)[C@@H](O)[C@H]1O | 0.9 nM |
| Nc1ncnc2c1ncn2C1=C[C@@H](CO)[C@@H](O)[C@H]1O | 27 nM |
